Reference: ChEMBL document CHEMBL3091286 (Bioorg Med Chem, 2013)
Activity calls are given as the source filed them. The calls are words filed in the database; no cut-off is given here.

The chains behind the UniProt entries cited, without tags or fusion partners.
5-hydroxytryptamine receptor 3A (Homo sapiens), P46098, UniProt P46098, whole entry W178C: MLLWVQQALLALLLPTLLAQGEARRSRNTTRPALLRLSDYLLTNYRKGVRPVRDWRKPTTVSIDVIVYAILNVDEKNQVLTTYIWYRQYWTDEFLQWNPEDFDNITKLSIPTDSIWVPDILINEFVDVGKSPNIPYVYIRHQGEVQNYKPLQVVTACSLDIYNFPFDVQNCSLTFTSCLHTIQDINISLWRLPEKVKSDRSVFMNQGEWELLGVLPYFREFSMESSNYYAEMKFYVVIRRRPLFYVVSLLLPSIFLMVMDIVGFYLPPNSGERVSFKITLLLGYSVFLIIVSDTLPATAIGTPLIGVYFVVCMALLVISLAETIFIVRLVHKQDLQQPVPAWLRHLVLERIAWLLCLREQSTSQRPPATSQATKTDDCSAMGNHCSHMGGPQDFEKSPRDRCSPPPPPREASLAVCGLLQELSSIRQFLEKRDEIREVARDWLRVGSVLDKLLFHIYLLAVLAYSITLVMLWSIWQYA
5-hydroxytryptamine receptor 3A (Homo sapiens), P46098, UniProt P46098, whole entry F125Y: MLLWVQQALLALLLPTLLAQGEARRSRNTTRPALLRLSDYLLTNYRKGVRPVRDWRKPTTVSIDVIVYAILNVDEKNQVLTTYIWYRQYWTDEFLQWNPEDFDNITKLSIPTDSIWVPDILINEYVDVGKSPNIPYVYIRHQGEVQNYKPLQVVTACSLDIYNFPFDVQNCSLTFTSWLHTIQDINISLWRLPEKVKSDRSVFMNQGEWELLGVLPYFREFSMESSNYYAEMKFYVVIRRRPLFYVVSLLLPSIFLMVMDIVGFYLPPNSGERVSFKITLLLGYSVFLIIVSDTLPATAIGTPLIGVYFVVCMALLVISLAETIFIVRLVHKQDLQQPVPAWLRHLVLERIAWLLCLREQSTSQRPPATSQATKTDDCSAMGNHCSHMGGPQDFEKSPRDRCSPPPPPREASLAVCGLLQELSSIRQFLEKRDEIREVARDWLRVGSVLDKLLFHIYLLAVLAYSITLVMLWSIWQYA
5-hydroxytryptamine receptor 3A (Homo sapiens), P46098, UniProt P46098, whole entry W85C: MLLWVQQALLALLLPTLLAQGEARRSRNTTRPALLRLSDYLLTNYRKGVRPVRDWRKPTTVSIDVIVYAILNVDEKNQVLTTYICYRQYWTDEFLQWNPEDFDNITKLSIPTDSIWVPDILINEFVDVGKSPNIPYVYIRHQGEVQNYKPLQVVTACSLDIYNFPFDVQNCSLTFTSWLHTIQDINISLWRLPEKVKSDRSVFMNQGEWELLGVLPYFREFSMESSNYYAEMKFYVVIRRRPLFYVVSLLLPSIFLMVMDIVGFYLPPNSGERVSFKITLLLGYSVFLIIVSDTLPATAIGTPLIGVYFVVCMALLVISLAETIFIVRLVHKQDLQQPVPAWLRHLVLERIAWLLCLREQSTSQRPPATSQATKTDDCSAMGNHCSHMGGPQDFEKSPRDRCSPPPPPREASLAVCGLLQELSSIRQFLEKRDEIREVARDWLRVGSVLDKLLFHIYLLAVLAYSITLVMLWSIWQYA

Assays:
[1] = system: 5-hydroxytryptamine receptor 3A (Homo sapiens), P46098 [W178C]; assay: Antagonist activity at human 5-HT3A receptor W183C mutant assessed as inhibition of 5-HT-induced response after 45 mins by FLIPR assay
Homo sapiens = species: Homo sapiens; assay: Ratio of Kd for human 5-HT3B receptor F130A mutant to Kd for human wild type 5-HT3A/5-HT3B receptor
[2] = system: 5-hydroxytryptamine receptor 3A (Homo sapiens), P46098 [F125Y]; assay: Antagonist activity at human 5-HT3A receptor F130Y mutant assessed as inhibition of 5-HT-induced response after 45 mins by FLIPR assay
[3] = system: 5-hydroxytryptamine receptor 3A (Homo sapiens), P46098 [W85C]; assay: Antagonist activity at human 5-HT3A receptor W90C mutant assessed as inhibition of 5-HT-induced response after 45 mins by FLIPR assay

In the case of `O=C1c2cccc3c2[C@H](CCC3)CN1[C@@H]1CN2CCC1CC2` [PALONOSETRON], the inhibition [1] is reported as “inactive”, the Ratio (Homo sapiens) is reported as 2 and the inhibition [2] is reported as “inactive”. For the same compound, the inhibition [3] was “inactive”.
